## Binding of CDR-mutated scFvs to a peptide of the spike HR2 region

Target: peptide PDVDLGDISGINAS, taken from heptad repeat 2 (HR2) of SARS-CoV-2 spike.

Parent scFv Ab-95: VH joined to VL by a (GGGGS)3 linker. Changes lie in the light chain CDRs alone.
VH: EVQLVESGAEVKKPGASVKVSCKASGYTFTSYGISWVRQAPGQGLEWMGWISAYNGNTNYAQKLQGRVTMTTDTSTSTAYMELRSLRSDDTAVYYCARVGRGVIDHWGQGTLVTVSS
VL: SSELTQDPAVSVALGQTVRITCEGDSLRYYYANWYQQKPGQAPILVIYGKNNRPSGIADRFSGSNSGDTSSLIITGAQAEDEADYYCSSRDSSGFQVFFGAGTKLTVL

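The parent was found by panning a naive human phage display library on the peptide. In library AAYL52, one, two or three CDR residues were substituted; doubles and triples were drawn at random. The assay is AlphaSeq: two haploid yeast populations carry antibody and antigen on their surface. Mating (16 h, 30 °C) was followed by selection of diploids and sequencing of their barcodes. Scores were corrected for input abundance and mapped to Kd with protein pairs of known affinity run in the same pool. Mating was done three times.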

Variants are written as CDR1, CDR2 and CDR3 of the light chain (limits as in the source). Parent: EGDSLRYYYAN, GKNNRPS, SSRDSSGFQVF.
Every variant below is changed at S92 of the VL (sequential numbering).
The read-out is the apparent dissociation constant on a log10 scale (nM): the lower, the stronger.
Averages over replicates are reported, and they cover detected replicates only.
"no signal" marks a missing value. The strain was present, yet no cells mated with the target were sequenced in any replicate, which points to weak or no binding.
Background: pairings of library AAYL52 with three empty control strains gave a value in 28% of cases (median 3.91, 5th percentile 2.90). Values in that range, when seen in few replicates, are hard to tell from nonspecific mating.
For reference, the parent read 2.31 as the reference entry and 2.25 as a member of this library.

For AGASLRYYYAN | GKNNRPS | SSRDMSGFQVF, the assay gave 1.78 (3 of 3 replicates). The variant EGDSLRYYYAN | GKNNRPS | VIRDISGFQVF gave 3.75 (3 of 3 replicates). The variant EGDSLRYYYRN | GANNRPS | SSRDPSGFQVF gave 3.64 (2 of 3 replicates). For EGDSLRYYYHN | QKNNRPS | SSRDNSGFQVF, the assay gave 5.02 (2 of 3 replicates). With EFDSLRYYYAY | GKNNRPS | SSRDLSGFQVF the result was 3.58 (3 of 3 replicates). The variant EWDSLRYYYAN | GKNNRPS | SSRDWSGFQVF gave 4.03 (2 of 3 replicates). For EGDSLRYYYTN | GKNNRPS | SSRDQSGFQEF, the assay gave 2.31 (3 of 3 replicates).

For EGDQLRYYYAN | GKNNRPS | SFRDESGFQVF, the assay gave no signal (0 of 3 replicates). With EGDSLRYYYAN | GKNNRPS | SSTDWSTFQVF the result was 3.15 (3 of 3 replicates). The variant EGDSLRYYIAN | GKHNRPS | SSRDASGFQVF gave 3.43 (3 of 3 replicates). The variant EGDSNRYYYAN | GLNNRPS | SSRDGSGFQVF gave 3.33 (2 of 3 replicates). For EGDSLRYYYAN | GLNNRPD | SSRDFSGFQVF, the assay gave 3.05 (1 of 3 replicates). With EGDGLRYYYAS | GKNNRPS | SSRDNSGFQVF the result was 2.90 (3 of 3 replicates). The variant EGDSLRYYYAN | GMNNRPS | SSRDDLGFQVF gave 2.50 (3 of 3 replicates).

With EGDSLRYYYSN | GKNNRPS | SSRAWSGFQVF the result was no signal (0 of 3 replicates). The variant EGDSLRYYYAN | GKNNCPS | SSRDQSGFQVF gave 4.00 (1 of 3 replicates). The variant EGDNLRYYYAN | GKNNRPS | SSRDTSCFQVF showed no signal (0 of 3 replicates). The variant EGDSLRYYYAN | GKNNRPS | SSRDMSGFKVF gave 1.61 (3 of 3 replicates). The variant EGDSLRGYYAN | GKNNRTS | SSRDDSGFQVF gave 2.88 (3 of 3 replicates). For EGDSLRYAYAN | GKNNRPS | SNRDPSGFQVF, the assay gave 2.62 (3 of 3 replicates). The variant EGDSLIYYYAN | GKNNRPS | SSCDGSGFQVF showed 3.39 (3 of 3 replicates).

The variant NGDSLRYYYYN | GKNNRPS | SSRDNSGFQVF gave no signal (0 of 3 replicates). For EGDILRYYYAN | GKNNRSS | SSRDQSGFQVF, the assay gave 2.93 (2 of 3 replicates). For EGDSLRYYYAN | GKNLRPD | SSRDWSGFQVF, the assay gave 2.14 (3 of 3 replicates). With EGDSIRYYYAN | GKNNRPS | SSRDRSGFQVE the result was 3.09 (3 of 3 replicates). With EGDSLRYYYAN | GKNNRPC | SSWDNSGFQVF the result was 3.21 (3 of 3 replicates). The variant EGDSLRYYYAN | GKMNRPS | SSMDQSGFQVF showed no signal (0 of 3 replicates). The variant EGDSLRYYYAN | GKNNRPS | SSVDASEFQVF showed 3.09 (3 of 3 replicates).

The variant EGRSLRYYYAN | GKNNPPS | SSRDQSGFQVF showed 4.32 (3 of 3 replicates). The variant EGDSLRYYYAN | GKNNRPS | SYRDGSQFQVF gave no signal (0 of 3 replicates). The variant EGDSLRIYYAN | GKNNRPS | SSEDLSGFQVF showed no signal (0 of 3 replicates). For EGDSLRYYYAN | GKNNRPS | SSRDYSGFQVF, the assay gave 2.32 (3 of 3 replicates). With EGDSLRYYRAN | GKNNRPS | SSRDHSGFQRF the result was 2.32 (3 of 3 replicates). The variant EYDSLRYYYAN | GKNNRPS | SSRDFNGFQVF gave 5.20 (2 of 3 replicates). The variant EGDSLRYYYAN | GKNNRPS | SSNQASGFQVF gave 1.11 (3 of 3 replicates).

With EGDSLRYYYAN | GKNNCPS | SSEDHSGFQVF the result was 3.98 (3 of 3 replicates). For EGDNLRYYYAN | GKNNRPS | SSRDESGGQVF, the assay gave 4.46 (2 of 3 replicates). The variant EGDSLRYYYAN | GKNNRPS | SSRDMKGFQVV gave no signal (0 of 3 replicates). The variant EGDSKRYPYAN | GKNNRPS | SSRDGSGFQVF gave 2.60 (3 of 3 replicates). The variant EGDSLRYYYAN | GKNNRPS | RSWDCSGFQVF showed 2.65 (3 of 3 replicates). For EGDGLLYYYAN | GKNNRPS | SSRDCSGFQVF, the assay gave 4.20 (1 of 3 replicates). For EGDSLRYYYAN | GKNNRPS | SSRDCSKFQVI, the assay gave 3.82 (2 of 3 replicates).

With EGDSLRYYYAN | GTNNRPS | SSRDESGEQVF the result was 3.19 (3 of 3 replicates). For EGDSLRYYYAN | GKHARPS | SSRDWSGFQVF, the assay gave 3.71 (3 of 3 replicates). The variant EGDSLRYYYAN | GKNNRPS | TSRDQSGFQVF showed 2.11 (3 of 3 replicates). The variant EGDSLRYYYAN | GKNNRPS | TSRMYSGFQVF showed 2.34 (3 of 3 replicates). The variant EGRSLRWYYAN | GKNNRPS | SSRDGSGFQVF showed 2.62 (3 of 3 replicates).

A selection of 6 entries from above:

The variant EGDSLIYYYAN | GKNNRPS | SSCDGSGFQVF gave 3.39 (3 of 3 replicates).
The variant EGDSLRYYYAN | GMNNRPS | SSRDDLGFQVF gave 2.50 (3 of 3 replicates).
The variant EGDNLRYYYAN | GKNNRPS | SSRDESGGQVF gave 4.46 (2 of 3 replicates).
The variant EGDNLRYYYAN | GKNNRPS | SSRDTSCFQVF gave no signal (0 of 3 replicates).
The variant EGDSNRYYYAN | GLNNRPS | SSRDGSGFQVF gave 3.33 (2 of 3 replicates).
The variant EGDSLRYYYAN | GKMNRPS | SSMDQSGFQVF gave no signal (0 of 3 replicates).

The measurements come from Engelhart et al. 2022 (doi:10.1038/s41597-022-01779-4) through the FLAb antibody collection.